This passage reports contralateral turning results from patent US8389532B2, “7-[2-[4-(6-fluoro-3-methyl-1,2-benzisoxazol-5-yl)-1-piperazinyl]ethyl]-2-(1-propynyl)-7H-pyrazolo-[4,3-E]-[1,2,4]-triazolo-[1,5-C]-pyrimidin-5-amine” (Merck Sharp & Dohme Corp., priority 2005, dated 2013).

The subject of this assay is 6-OHDA lesioned rats. In words: 6-OHDA lesion of the middle forebrain bundle in rats (contralateral turning with subthreshold L-DOPA). Type of assay: in vivo, rat. The settings on record: sub-threshold L-DOPA alone (4 mpk ip plus benserazide 4 mpk ip). Here is the method: 6-OHDA Lesion of the Middle Forebrain Bundle in Rats
Adult male Sprague-Dowley rats (Charles River, Calco, Como, Italy), weighing 275-300 g, are used in all experiments. The rats are housed in groups of 4 per cage, with free access to food and water, under controlled temperature and 12 hour light/dark cycle. The day before the surgery the rats are fasted over night with water ad libitum.
Unilateral 6-hydroxydopamine (6-OHDA) lesion of the middle forebrain bundle is performed according to the method described by Ungerstedt et al. (Brain Research, 1971, 6-OHDA and Cathecolamine Neurons, North Holland, Amsterdam, 101-127), with minor changes. Briefly, the animals are anaesthetized with chloral hydrate (400 mg/kg, ip) and treated with desipramine (10 mpk, ip) 30 min prior to 6-OHDA injection in order to block the uptake of the toxin by the noradrenergic terminals. Then, the animals are placed in a stereotaxic frame. […]
Two weeks after the lesion the rats are administered with L-DOPA (50 mg/kg, ip) plus Benserazide (25 mg/kg, ip) and selected on the basis of the number of full contralateral turns quantified in the 2 h testing period by automated rotameters (priming test). […]

Regarding `N[C@@H](Cc1ccc(O)c(O)c1)C(=O)O` [L-DOPA, reference compound], the contralateral turning is 171±47 rotations.
